These results are taken from patent US12258310B2, “Solid peroxyalphahydroxycarboxylic acid generation compositions and the use thereof” (ECOLAB USA INC., priority 2021, dated 2025).

The data set in a line: Physical property (vapor pressure, odor) of alphacarboxylic acids and peroxyalphacarboxylic acids. Format: physicochemical.

In the case of `O=C(CO)OO`, the Odor entry is “Odorless”.
